These are literature values, as cited in US6512003B2, “Synthetic spiroketal pyranes as potent anti-cancer agents and use” (Parker Hughes Institute, priority 1998, dated 2003).

This series concerns NCI panel of 60 human cancer cell lines. As to conditions: cited from earlier work.

Consider Spongistatin, for which the “IC50 values, cytotoxicity” value is listed as “subnanomolar”.
